This is an account of results in patent publication US20200255529A1 (PIONYR IMMUNOTHERAPEUTICS, published 2020).

The chains behind the UniProt entries cited, without tags or fusion partners. Residues count along the entry.
UniProt Q9NP99, 21-234 limits assumed: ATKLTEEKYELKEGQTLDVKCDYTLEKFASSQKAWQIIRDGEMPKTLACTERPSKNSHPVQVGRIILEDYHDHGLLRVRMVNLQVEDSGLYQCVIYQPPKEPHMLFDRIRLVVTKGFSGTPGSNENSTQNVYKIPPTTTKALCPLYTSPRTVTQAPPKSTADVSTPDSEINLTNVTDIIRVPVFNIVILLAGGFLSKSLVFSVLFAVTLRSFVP
UniProt Q9NP99, 21-205 limits assumed, stated change not applied: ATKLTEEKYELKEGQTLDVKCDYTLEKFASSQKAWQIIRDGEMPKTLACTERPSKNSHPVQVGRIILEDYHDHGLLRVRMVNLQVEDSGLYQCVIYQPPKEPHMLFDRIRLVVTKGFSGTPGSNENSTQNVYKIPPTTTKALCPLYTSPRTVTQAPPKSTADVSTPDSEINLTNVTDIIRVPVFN

Assay [1] has as its target T1, human TREM1 on cells (human, UniProt Q9NP99 21-234).
T1 construct: Used for over-expressing cell lines and for primary human monocytes and neutrophils; also called hTREM1; human TREM1 over-expressing HEK293 or expi293 cells
Description: flow cytometry on human neutrophils.

Assay [2] deals with T2, Human chimeric TREM1-mIgG Fc (human, UniProt Q9NP99 21-205, limits assumed).
T2 construct: also called human TREM1-mIgG Fc; not shown: mouse IgG Fc
The assay can be described thus: SPR (Biacore T200), avid format: human TREM1-mIgG Fc captured, antibody as analyte. The protocol:
All data were collected at 25° C. 10 mM HEPES pH 7.4, 150 mM NaCl, 3 mM EDTA, 0.05% (v/V) surfactant P20 was used as mobile buffer and for all dilution of mAbs. Anti-mouse Fc was immobilized on a CM4 biosensor chip (GE Healthcare) using amine coupling chemistry. […] After each cycle, the surface was regenerated by injecting a glycine HCl buffer (10 mM, pH 2.0). BIAevaluation software was used to perform the kinetic evaluation. Kinetic evaluation was through generation of sensorgrams which were fitted with a 1:1 Langmuir binding model.

For assay [3], the target named is T3, His tagged-human TREM1 (human, UniProt Q9NP99 21-205, limits assumed).
T3 construct: also called monomeric human TREM1; not shown: His tag
The assay can be described thus: SPR (Biacore T200), monomeric format: antibody captured, His-tagged human TREM1 as analyte. Here is the method:
All data were collected at 25° C. 10 mM HEPES pH 7.4, 150 mM NaCl, 3 mM EDTA, 0.05% (v/V) surfactant P20 was used as mobile buffer and for all dilution of mAbs. […] BIAevaluation software was used to perform the kinetic evaluation. Kinetic evaluation was through generation of sensorgrams which were fitted with a 1:1 Langmuir binding model.

The target in assay [4] is T1, human TREM1 on cells. Description: flow cytometry on human peripheral blood monocytes.
Assay [5] addresses T2, Human chimeric TREM1-mIgG Fc. Description: SPR (Biacore T200), avid format: human TREM1-mIgG Fc captured, antibody as analyte. This is another data set of the same source. For orientation: In SPR one partner is held on a chip, and binding of the other changes the refractive index at the surface.
Assay [6] deals with T3, His tagged-human TREM1. Description: SPR (Biacore T200), monomeric format: antibody captured, His-tagged human TREM1 as analyte. The source holds these as a separate data set.
Assay [7] has as its target T1, human TREM1 on cells. The assay can be described thus: flow cytometry on human peripheral blood monocytes. The source holds these as a separate data set.
For assay [8], the target named is T2, Human chimeric TREM1-mIgG Fc. Description: SPR (Biacore T200), avid format: human TREM1-mIgG Fc captured, antibody as analyte. This is another data set of the same source.
Assay [9] deals with T3, His tagged-human TREM1. The assay can be described thus: SPR (Biacore T200), monomeric format: antibody captured, His-tagged human TREM1 as analyte. This is another data set of the same source.

Read-outs that look alike come from different tables or passages of the source.

B1: PI-4026-6 (antibody, IgG1, V domains shown)
VH: QVQLVQSGAEVKKPGASVKMSCKASGYTFTDYVINWVRQAPGQGLEWIGEIYPGSGSTFYAQKFQGRATLTADTSTSTAYMEVSSLRSEDTAVYYCTRRMAAMDYWGQGTLVTVSS
VL: DIQLTQSPSSLSASVGDRITLTCSASSSVSYMHWYQQKPGKAPKLLLYTTSNLASGVPSRFSGSGSGTDYTLTISSVQPEDFATYYCHQWSGYPTFGQGTKLEIK
One may read the EC50 as the concentration needed to bring the measured effect to its halfway point. A high value points to a less potent agent. The term Kd denotes the concentration at which binding is half-saturated. In turn, B1 displayed a concentration for a half-maximal effect (EC50) with human TREM1 on cells [1] of 0.26 nM. Moreover, the figures for the Kd (in assay [2]; with His tagged-human TREM1 [3]) were < 0.1 nM and 1.55 nM, respectively.

B2: PI-4026-1 (antibody, IgG1, V domains shown)
VH: QVQLVQSGAEVKKPGASVKVSCKASGYTFTDYVINWVRQAPGQGLEWMGEIYPGSGSTFYAQKFQGRVTMTRDTSTSTVYMELSSLRSEDTAVYYCARRMAAMDYWGQGTLVTVSS
VL: DIQMTQSPSSLSASVGDRVTITCSASSSVSYMHWYQQKPGKAPKLLIYTTSNLASGVPSRFSGSGSGTDFTLTISSLQPEDFATYYCHQWSGYPTFGQGTKLEIK
As to B2, in the assay with human TREM1 on cells [1], the midpoint of the response, the EC50, lay at 3.25 nM.

B3: PI-4026-3 (antibody, IgG1, V domains shown)
VH: QVQLVQSGAEVKKPGASVKVSCKASGYTFTDYVINWVRQAPGQGLEWMGEIYPGSGSTFYAQKFQGRVTMTADTSTSTVYMELSSLRSEDTAVYYCTRRMAAMDYWGQGTLVTVSS
VL: DIQLTQSPSSLSASVGDRITLTCSASSSVSYMHWYQQKPGKAPKLLLYTTSNLASGVPSRFSGSGSGTDYTLTISSVQPEDFATYYCHQWSGYPTFGQGTKLEIK
As to B3, the EC50 in the assay with human TREM1 on cells [1] is 0.3 nM. The Kd in assay [2] was < 0.1 nM; with His tagged-human TREM1 [3], 2.42 nM.

B4: PI-4026-9 (antibody, IgG1, V domains shown)
VH: QVQLVQSGAEVKKPGASVKMSCKASGYTFTDYVINWVRQAPGQGLEWIGEIYPGSGSTFYAQKFQGRATLTADKSTSTAYMEVSSLRSEDTAVYYCTRRMAAMDYWGQGTLVTVSS
VL: DIQLTQSPSSLSASVGDRITLTCSASSSVSYMHWYQQKPGKAPKLLLYTTSNLASGVPSRFSGSGSGTDYTLTISSVQPEDFATYYCHQWSGYPTFGQGTKLEIK
As to B4, the EC50 with human TREM1 on cells [1] is 0.17 nM. For the same molecule, the Kd in assay [2] was < 0.1 nM; with His tagged-human TREM1 [3], 2.83 nM.

B5: PI-4026-10 (antibody, IgG1, V domains shown)
VH: QVQLVQSGAEVKKPGASVKMSCKASGYTFTDYVINWVRQAPGQGLEWIGEIYPGSGSTFYAQKFQGRATLTADKSTSTAYMEVSSLRSEDTAVYYCTRRMAAMDYWGQGTLVTVSS
VL: DIQLTQSPSSLSASVGDRITLTCSASSSVSYMHWYQQKPGKAPKLLLYTTSNLASGVPSRFSGSGSGTDYTLTISSVQPEDAATYYCHQWSGYPTFGQGTKLEIK
As for B5, the response with human TREM1 on cells [1] was half-maximal at 0.2 nM (EC50). The Kd in assay [2] was < 0.1 nM; with His tagged-human TREM1 [3] it was 2.77 nM.

B6: PI-4026-4 (antibody, IgG1, V domains shown)
VH: QVQLVQSGAEVKKPGASVKVSCKASGYTFTDYVINWVRQAPGQGLEWMGEIYPGSGSTFYAQKFQGRVTMTADTSTSTVYMELSSLRSEDTAVYYCTRRMAAMDYWGQGTLVTVSS
VL: DIQLTQSPSSLSASVGDRITLTCSASSSVSYMHWYQQKPGKAPKLLLYTTSNLASGVPSRFSGSGSGTDYTLTISSVQPEDAATYYCHQWSGYPTFGQGTKLEIK
B6 came in with an EC50 with human TREM1 on cells [1] of 0.27 nM. For the same molecule, the Kd in assay [2] is < 0.1 nM; with His tagged-human TREM1 [3], 3.63 nM.

B7: PI-4026-2 (antibody, IgG1, V domains shown)
VH: QVQLVQSGAEVKKPGASVKVSCKASGYTFTDYVINWVRQAPGQGLEWMGEIYPGSGSTFYAQKFQGRVTMTADTSTSTVYMELSSLRSEDTAVYYCTRRMAAMDYWGQGTLVTVSS
VL: DIQLTQSPSSLSASVGDRVTITCSASSSVSYMHWYQQKPGKAPKLLLYTTSNLASGVPSRFSGSGSGTDYTLTISSLQPEDFATYYCHQWSGYPTFGQGTKLEIK
Molecule B7 gave an EC50 in the assay with human TREM1 on cells [1] of 0.33 nM. Besides, the results for the Kd (in assay [2]; in the assay with His tagged-human TREM1 [3]) were < 0.1 nM and 2.65 nM, respectively.

B8: PI-4026-7 (antibody, IgG1, V domains shown)
VH: QVQLVQSGAEVKKPGASVKMSCKASGYTFTDYVINWVRQAPGQGLEWIGEIYPGSGSTFYAQKFQGRATLTADTSTSTAYMEVSSLRSEDTAVYYCTRRMAAMDYWGQGTLVTVSS
VL: DIQLTQSPSSLSASVGDRITLTCSASSSVSYMHWYQQKPGKAPKLLLYTTSNLASGVPSRFSGSGSGTDYTLTISSVQPEDAATYYCHQWSGYPTFGQGTKLEIK
In the case of B8, the EC50 with human TREM1 on cells [1] was 0.19 nM. The Kd in [2] was < 0.1 nM; with His tagged-human TREM1 [3], 2.31 nM.

B9: PI-4026-8 (antibody, IgG1, V domains shown)
VH: QVQLVQSGAEVKKPGASVKMSCKASGYTFTDYVINWVRQAPGQGLEWIGEIYPGSGSTFYAQKFQGRATLTADKSTSTAYMEVSSLRSEDTAVYYCTRRMAAMDYWGQGTLVTVSS
VL: DIQLTQSPSSLSASVGDRVTITCSASSSVSYMHWYQQKPGKAPKLLLYTTSNLASGVPSRFSGSGSGTDYTLTISSLQPEDFATYYCHQWSGYPTFGQGTKLEIK
Turning to B9, in the assay with human TREM1 on cells [1], the response was half-maximal at 0.22 nM (EC50). For the same molecule, the Kd in [2] is < 0.1 nM; in the assay with His tagged-human TREM1 [3], 2.51 nM.

B10: afucosylated PI-4026-5-M100 (parent) (antibody, human IgG1, kappa)
heavy: not shown
light: DIQLTQSPSSLSASVGDRVTITCSASSSVSYMHWYQQKPGKAPKLLLYTTSNLASGVPSRFSGSGSGTDYTLTISSLQPEDFATYYCHQWSGYPTFGQGTKLEIKRTVAAPSVFIFPPSDEQLKSGTASVVCLLNNFYPREAKVQWKVDNALQSGNSQESVTEQDSKDSTYSLSSTLTLSKADYEKHKVYACEVTHQGLSSPVTKSFNRGEC
modifications: afucosylated Fc glycan (made in FUT8-deficient expi293 cells)
With B10, a half-maximal response in the assay with human TREM1 on cells [4] (EC50) required 0.6 nM. In addition, the values for the Kd (in [5]; with His tagged-human TREM1 [6]) were 0.55 nM and 6.21 nM, respectively.

B11: PI-4026-5-M100I (fucosylated) (antibody, human IgG1, kappa)
heavy: not shown
light: DIQLTQSPSSLSASVGDRVTITCSASSSVSYMHWYQQKPGKAPKLLLYTTSNLASGVPSRFSGSGSGTDYTLTISSLQPEDFATYYCHQWSGYPTFGQGTKLEIKRTVAAPSVFIFPPSDEQLKSGTASVVCLLNNFYPREAKVQWKVDNALQSGNSQESVTEQDSKDSTYSLSSTLTLSKADYEKHKVYACEVTHQGLSSPVTKSFNRGEC
In the assay with human TREM1 on cells [7], B11 had an EC50 of 0.94 nM. Besides, the Kd in assay [8] was 0.88 nM; in the assay with His tagged-human TREM1 [9], 10.2 nM.

B12: PI-4026-5-M100L (fucosylated) (antibody, human IgG1, kappa)
heavy: not shown
light: DIQLTQSPSSLSASVGDRVTITCSASSSVSYMHWYQQKPGKAPKLLLYTTSNLASGVPSRFSGSGSGTDYTLTISSLQPEDFATYYCHQWSGYPTFGQGTKLEIKRTVAAPSVFIFPPSDEQLKSGTASVVCLLNNFYPREAKVQWKVDNALQSGNSQESVTEQDSKDSTYSLSSTLTLSKADYEKHKVYACEVTHQGLSSPVTKSFNRGEC
notes: hIgG1, fucosylated; also called fucosylated parent of PI64052
In the assay with human TREM1 on cells [7], B12 came in with an EC50 of 0.67 nM. Moreover, the dissociation constant Kd was 0.27 nM in assay [8] and 4.93 nM in the assay with His tagged-human TREM1 [9].

B13: afucosylated PI-4026-5-M100E (antibody, human IgG1, kappa)
heavy: not shown
light: DIQLTQSPSSLSASVGDRVTITCSASSSVSYMHWYQQKPGKAPKLLLYTTSNLASGVPSRFSGSGSGTDYTLTISSLQPEDFATYYCHQWSGYPTFGQGTKLEIKRTVAAPSVFIFPPSDEQLKSGTASVVCLLNNFYPREAKVQWKVDNALQSGNSQESVTEQDSKDSTYSLSSTLTLSKADYEKHKVYACEVTHQGLSSPVTKSFNRGEC
modifications: afucosylated Fc glycan (made in FUT8-deficient expi293 cells)
In the assay with human TREM1 on cells [4], B13 had an EC50 of 0.3 nM. Further, the results for the Kd (in assay [5]; with His tagged-human TREM1 [6]) were < 0.1 nM and 3.74 nM, respectively.

B14: PI-4026-5-M100E (fucosylated) (antibody, human IgG1, kappa)
heavy: not shown
light: DIQLTQSPSSLSASVGDRVTITCSASSSVSYMHWYQQKPGKAPKLLLYTTSNLASGVPSRFSGSGSGTDYTLTISSLQPEDFATYYCHQWSGYPTFGQGTKLEIKRTVAAPSVFIFPPSDEQLKSGTASVVCLLNNFYPREAKVQWKVDNALQSGNSQESVTEQDSKDSTYSLSSTLTLSKADYEKHKVYACEVTHQGLSSPVTKSFNRGEC
As to B14, it took 0.45 nM to reach a half-maximal effect with human TREM1 on cells [7] (EC50). Moreover, the dissociation constant Kd in [8] stood at 0.19 nM; with His tagged-human TREM1 [9], 3.33 nM.

B15: PI-4026 (chimera) (antibody, human IgG1, V domains shown)
VH: QVQLQQSGPELVKPGTSVKMSCKASGYTFTDYVINWVKQRTGQGLEWIGEIYPGSGSTFYHEKFKGKATLTADKSSNTAYMQVSSLTSEDSAVYFCTRRMAAMDYWGQGTSVTVSS
VL: QIVLTQSPAIMSASLGEEITLTCSASSSVSYMHWYQQKSGTSPKLLLYTTSNLASGVPSRFSGTGSGTFYSLTISSVEAEDAADYYCHQWSGYPTFGGGTKLEIK
The molecule B15 returned an EC50 with human TREM1 on cells [1] of 0.46 nM. Further, the results for the Kd (in [2]; with His tagged-human TREM1 [3]) were < 0.1 nM and 1.13 nM, respectively.
